For series [1] the following is noted: Crystal; DTA.
A short description of series [2]: Molar enthalpy of transition or fusion. The note with it: Crystal; DSC.

Numbers after ± are expanded uncertainties.

For the molecule `C/C=C/C=C/C(=O)O` [2,4-hexadienoic acid], the Normal melting temperature in series [1] is 132.2 ± 0.7 °C. For the same molecule, the “Molar enthalpy of transition or fusion” value in series [2] was 4.48 ± 0.287 kcal/mol.

(Values after the NIST ThermoML archive (doi:10.1016/j.jct.2015.02.004).)
